The values below come from ChEMBL document CHEMBL1141150, “Synthesis of classical, four-carbon bridged 5-substituted furo[2,3-d]pyrimidine and 6-substituted pyrrolo[2,3-d]pyrimidine analogues as antifolates” (J Med Chem, 2005).

For the assay, the target named is T1, Dihydrofolate reductase (Homo sapiens, UniProt P00374).
T1 sequence (P00374 whole entry): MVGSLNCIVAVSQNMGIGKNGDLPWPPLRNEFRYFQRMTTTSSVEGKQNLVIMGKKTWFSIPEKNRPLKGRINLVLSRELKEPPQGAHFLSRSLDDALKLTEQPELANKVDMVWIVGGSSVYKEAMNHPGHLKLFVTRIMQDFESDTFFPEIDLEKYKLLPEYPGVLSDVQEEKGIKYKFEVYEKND
Put plainly: Inhibition of recombinant human dihydrofolate reductase done at 37 degree C in pH 7.4 with compound.

Structures are written as SMILES. pKi: −log10 of the molar value.

One may read the pKi as the negative decadic logarithm of the Ki, by convention in mol/L. In the case of `Nc1nc2[nH]cc(CCc3ccc(C(=O)N[C@@H](CCC(=O)O)C(=O)O)cc3)c2c(=O)[nH]1` [PEMETREXED], the negative logarithm of the Ki (pKi) is 8.15.
